Measurements as given in US20040142357A1 (BETH ISRAEL DEACONESS MEDICAL CENTER, published 2004).

Protein sequences, listed by entry. Tags and fused reporters are not part of them. Lines headed by an entry give the natural chain unless they say otherwise; changes in a name come on top.
UniProt O14746: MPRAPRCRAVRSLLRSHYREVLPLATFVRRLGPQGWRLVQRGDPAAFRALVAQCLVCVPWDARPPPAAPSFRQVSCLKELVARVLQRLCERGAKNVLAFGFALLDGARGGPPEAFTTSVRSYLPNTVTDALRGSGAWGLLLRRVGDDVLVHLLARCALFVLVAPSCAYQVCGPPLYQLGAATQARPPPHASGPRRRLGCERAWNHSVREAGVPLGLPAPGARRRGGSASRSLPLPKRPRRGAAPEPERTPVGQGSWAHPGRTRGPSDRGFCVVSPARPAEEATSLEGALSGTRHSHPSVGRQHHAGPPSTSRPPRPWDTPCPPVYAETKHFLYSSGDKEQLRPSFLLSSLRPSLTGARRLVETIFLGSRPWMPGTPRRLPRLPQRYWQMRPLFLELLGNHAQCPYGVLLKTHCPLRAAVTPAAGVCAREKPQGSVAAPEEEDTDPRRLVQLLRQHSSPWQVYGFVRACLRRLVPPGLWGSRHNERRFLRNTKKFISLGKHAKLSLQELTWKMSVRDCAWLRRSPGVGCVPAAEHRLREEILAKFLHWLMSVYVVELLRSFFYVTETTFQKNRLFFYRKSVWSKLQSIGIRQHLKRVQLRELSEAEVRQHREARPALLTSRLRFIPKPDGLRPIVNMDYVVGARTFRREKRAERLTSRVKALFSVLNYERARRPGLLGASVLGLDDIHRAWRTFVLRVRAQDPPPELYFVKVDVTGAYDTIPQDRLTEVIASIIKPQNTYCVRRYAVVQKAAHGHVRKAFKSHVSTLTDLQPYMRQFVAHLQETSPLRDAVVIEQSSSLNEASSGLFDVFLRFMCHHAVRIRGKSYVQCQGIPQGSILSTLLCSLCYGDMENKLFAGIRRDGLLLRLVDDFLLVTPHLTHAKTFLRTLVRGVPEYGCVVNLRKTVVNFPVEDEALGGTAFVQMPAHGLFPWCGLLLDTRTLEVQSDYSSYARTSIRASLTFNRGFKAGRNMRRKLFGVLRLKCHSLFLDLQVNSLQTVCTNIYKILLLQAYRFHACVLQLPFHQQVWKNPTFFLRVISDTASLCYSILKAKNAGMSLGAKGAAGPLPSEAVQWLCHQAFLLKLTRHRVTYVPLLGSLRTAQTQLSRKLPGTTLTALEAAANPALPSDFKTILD
UniProt P54274: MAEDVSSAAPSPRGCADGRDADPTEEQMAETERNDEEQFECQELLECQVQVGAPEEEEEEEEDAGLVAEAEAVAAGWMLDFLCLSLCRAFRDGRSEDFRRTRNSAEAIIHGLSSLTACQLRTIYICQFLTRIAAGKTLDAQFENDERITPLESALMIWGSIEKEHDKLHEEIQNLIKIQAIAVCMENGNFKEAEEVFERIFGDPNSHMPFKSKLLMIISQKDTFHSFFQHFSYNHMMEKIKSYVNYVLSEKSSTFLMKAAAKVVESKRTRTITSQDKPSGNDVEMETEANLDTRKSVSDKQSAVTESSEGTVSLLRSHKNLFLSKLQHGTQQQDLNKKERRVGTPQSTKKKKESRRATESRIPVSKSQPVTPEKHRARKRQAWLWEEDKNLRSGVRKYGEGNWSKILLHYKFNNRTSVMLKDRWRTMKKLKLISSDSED

Experiments:
[1] = target: 35S-hTERT (human TERT synthesized by in vitro transcription and translation) (human, UniProt O14746, [35S]-Met labelled); assay: GST pulldown of in vitro translated protein, autoradiography
[2] = target: T1, [35S]-Pin2 (Pin2 synthesized by in vitro transcription and translation) (human, UniProt P54274 2-439, [35S]-Met labelled); assay: as above
T1 sequence: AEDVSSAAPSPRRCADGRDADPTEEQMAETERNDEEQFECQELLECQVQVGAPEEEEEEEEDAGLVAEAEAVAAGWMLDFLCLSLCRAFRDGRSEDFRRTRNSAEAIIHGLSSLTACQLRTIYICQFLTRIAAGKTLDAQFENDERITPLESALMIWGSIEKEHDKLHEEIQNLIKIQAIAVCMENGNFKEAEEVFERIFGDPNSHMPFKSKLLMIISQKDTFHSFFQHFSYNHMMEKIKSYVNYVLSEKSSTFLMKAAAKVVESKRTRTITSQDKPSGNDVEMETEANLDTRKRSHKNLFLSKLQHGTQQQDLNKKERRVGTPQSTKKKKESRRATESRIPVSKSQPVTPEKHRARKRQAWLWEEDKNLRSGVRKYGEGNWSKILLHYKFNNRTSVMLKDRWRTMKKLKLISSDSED

[3] = target: T2, GFP-hTERT (human TERT produced in cells as a GFP fusion protein) (human, UniProt O14746); assay: GST pulldown from cell extracts, immunoblot with anti-GFP
T2 construct: In extracts of transiently transfected cells; not shown: GFP fusion partner
Description: (§1) After extensive wash, the bound proteins were separated on SDS-containing gels, followed by detecting HA-hTERT and GFP-hTERT by immunoblot with anti-HA and GFP antibodies, respectively, and 35S-hTERT by autoradiography.
(§2) GST pulldown, immunoprecipitation and immunoblotting analysis were performed as described (Lu et al., 1999; Shen et al., 1998). Briefly, relevant proteins were expressed in HeLa or HT1080 cells by transient transfection, or translated in vitro using the TNT coupled transcription/translation kit (Promega) in the presence of [³⁵S]-Met, followed by lysis or dilution in a buffer containing 50 mM HEPES, pH 7.5, 150 mM NaCl, 100 mM NaF, 1 mM sodium orthovanadate, 10% glycerol, 1% Triton X100, 10 μg/ml aprotinin, 10 μg/ml leupeptin, 50 μg/ml phenylmethylsulfonyl fluoride and 1 mM DTT. The cellular supernatants were incubated with 1 μM GST or GST fusion proteins for 1 hr at 4° C. and 15 μl of glutathione agarose beads were then added, followed by further incubation for 2 h at 4° C. The precipitated proteins were washed 4 times in the same buffer and subjected to immunoblotting analysis. Other antibodies used for immunoprecipitation and immunoblotting analysis include anti-Pin2/TRF1 (Shen et al., 1997) and anti-hTERT antibodies (Novus). […]

[4] = target: T3, HA-hTERT (human TERT produced in cells as a HA epitope tagged protein) (human, UniProt O14746); assay: GST pulldown from cell extracts, immunoblot with anti-HA
T3 construct: In extracts of transiently transfected cells
Description: as §1, §2

Measured: binding result

B1: GST (glutathione-S-transferase alone, on glutathione beads) (other, UniProt P08515 1-218, looked up)
chain: MSPILGYWKIKGLVQPTRLLLEYLEEKYEEHLYERDEGDKWRNKKFELGLEFPNLPYYIDGDVKLTQSMAIIRYIADKHNMLGGCPKERAEISMLEGAVLDIRYGVSRIAYSKDFETLKVDFLSKLPEMLKMFEDRLCHKTYLNGDHVTHPDFMLYDALDVVLYMDPMCLDAFPKLVCFKKRIEAIPQIDKYLKSSKYIAWPLQGWQATFGGGDHPPK
notes: Control protein; also called GST tag
no binding (tested: 1 µM): all assays above
